# Apparent affinities of Ab-95 variants for a coronavirus HR2 peptide

Source: Engelhart et al. 2022 (doi:10.1038/s41597-022-01779-4), MIT Lincoln Laboratory and A-Alpha Bio; data file from the FLAb repository.

Binding partner: SARS-CoV-2 spike HR2 peptide, sequence PDVDLGDISGINAS.

Parent scFv Ab-95: VH joined to VL by a (GGGGS)3 linker. Changes lie in the light chain CDRs alone.
VH: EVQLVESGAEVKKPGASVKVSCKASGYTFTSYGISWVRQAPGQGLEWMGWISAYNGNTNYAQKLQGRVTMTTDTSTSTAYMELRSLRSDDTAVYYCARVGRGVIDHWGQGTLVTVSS
VL: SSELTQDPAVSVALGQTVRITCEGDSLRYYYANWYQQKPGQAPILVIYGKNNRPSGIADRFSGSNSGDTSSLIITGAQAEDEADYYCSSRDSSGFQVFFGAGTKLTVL

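The starting antibody came from a phage panning campaign against this peptide. Variants in AAYL52 differ from the parent at up to three CDR positions; double and triple changes were sampled at random. The assay is AlphaSeq: two haploid yeast populations carry antibody and antigen on their surface. Pairs that bind mate more often; barcode pairs of the diploids are counted by sequencing. Scores were corrected for input abundance and mapped to Kd with protein pairs of known affinity run in the same pool. Each pool was mated in three replicate cultures.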

Variants are written as CDR1, CDR2 and CDR3 of the light chain (limits as in the source). Parent: EGDSLRYYYAN, GKNNRPS, SSRDSSGFQVF.
Values are apparent Kd, the geometric mean of the replicates that gave a signal; lower means stronger binding.
"not detected" means that the variant was in the library but no mating with the target was seen in any replicate; the authors take this as a sign of poor binding, and no number exists.

Kd (apparent),replicates with signal,CDR-L1,CDR-L2,CDR-L3
130 µM,2/3,EGDSLRYYNAN,GKNNRPS,DPRDSSGFQVF
900 nM,3/3,EGDPLRYYSAA,GKNNRPS,SSRDSSGFQVF
29 µM,1/3,ELDSLRYYYAN,GKNNRPS,GSRDSSGFQVF
not detected,0/3,EGASLRYYYLM,GKNNRPS,SSRDSSGFQVF
140 nM,3/3,EGDSLADYCAN,GKNNRPS,SSRDSSGFQVF
not detected,0/3,EGDSFRYYYAN,GKNNRYS,SSIDSSGFQVF
18 µM,2/3,EGDSVRYYYAN,GKNNRPS,SSRDSSGIQCF
11 µM,1/3,EGDSLRYYYAN,GKNNRPF,SSFDSSGFLVF
6.3 µM,1/3,EGDSLRYYYAN,GKINRPS,SSRDSCGMQVF
4.7 µM,1/3,EGDSLRYYYAN,GKNNIPS,SSDDSSGFQTF
10 µM,2/3,EGDSLRYYYAN,GKNNRPS,SHTRSSGFQVF
2.5 µM,3/3,EGDSLTHYYAN,GKNNRPS,SSRDSSIFQVF
41 nM,3/3,EGDSLRYYYAN,GKNDRPS,SSRDQSGFQVF
not detected,0/3,EGWSLRYYYAL,GKNNRPS,SNRDSSGFQVF
520 nM,3/3,EGDSLDYDYAN,GKNNRPS,SSPDSSGFQVF
not detected,0/3,ETDSLRYYYAN,GKNNRPS,SSQDRSGFQVF
650 nM,3/3,EGDQLRYYYAN,GENNRPP,SSRDSSGFQVF
not detected,0/3,EGDMLRYYYAN,GKNNRPS,SSRDSSGFIVT
1.3 µM,3/3,LGDSLRYYYCN,GKNNRPS,SGRDSSGFQVF
11 µM,2/3,EGDSLRYYYAN,GKANRPS,VSRDSSGFQEF
670 nM,3/3,EGDSLRYYYAN,GKNNRPS,VSRDSVGTQVF
58 µM,3/3,EGDSLRYYYAN,GCNNRPC,SSRDSSGFQVG
41 nM,3/3,EGDSLRDYYAN,GKNNRPW,SSRDSSGFQVF
5.4 µM,1/3,EGDSLWYDYAN,GKNNRPS,SSKDSSGFQVF
6.3 µM,3/3,EGDSLRYYSWN,GKNNRPS,SSRDSSGQQVF
6.5 µM,2/3,EGDSLRYYYAN,GKSNRPS,PSRDSNGFQVF
9.4 µM,1/3,EGSSWRYYYAN,GKNNRPS,SSRDSSGFMVF
5.4 µM,2/3,EGDSLRYYYAN,GMNYRFS,SSRDSSGFQVF
15 µM,1/3,EGDCLRYYYAN,GKNNRPW,SSRDSKGFQVF
1.4 µM,3/3,EGVSLRYYYAN,GKNNRPF,SERDSSGFQVF
91 nM,3/3,EGDSLSYYYAN,GKNNRPQ,SSRDSSGFSVF
2.3 µM,1/3,EGDSERYYTAN,GKNNRPS,SSRDSFGFQVF
1.3 µM,2/3,EGDSLRTYWAN,GKNNRPS,RSRDSSGFQVF
not detected,0/3,EGDSWDYYYAG,GKNNRPS,SSRDSSGFQVF
2.1 µM,3/3,EGDSLRYYYAN,GKNNRPW,SSRDSRGMQVF
760 nM,3/3,EGDSLRYYYAN,GDNNRDS,SSRDSSGFCVF
not detected,0/3,EGDSLRYYYAN,GKNNRPR,SRRDSSGFQVY
120 µM,2/3,EGDSGRYYYFN,GKNNWPS,SSRDSSGFQVF
11 µM,1/3,EQDSLRYYYAN,GKNNRPR,SSRDSSGFNVF
4.5 µM,1/3,EGDSLRYYYAN,WKNNVPS,SSRDHSGFQVF
4.3 µM,3/3,YGDSLRYYYAN,GKNNRHS,SSRDSRGFQVF
6.8 µM,1/3,AGDSLRYYYAE,GKNNRPS,SSRDSSGFQEF
1.8 µM,3/3,LGDSLRYHYAN,GKLNRPS,SSRDSSGFQVF
not detected,0/3,QGDLLRYYYAN,GKNNRPS,SSRSSSGFQVF
410 nM,3/3,EGFSLRYYYAN,GKNNRPQ,SSRDSSGFMVF
5.9 µM,2/3,EGDSMRYYYAN,GKNNRPS,SSRDSMGMQVF
1.4 µM,2/3,EGDSLRYYIAN,GKNNRPS,SSRDSSIFQVS
2.4 µM,1/3,PGISLRYYYAS,GKNNRPS,SSRDSSGFQVF
320 nM,3/3,EGDSLSYYYAN,GKNNRPS,SSLDSSGAQVF
1.1 µM,3/3,EGDSLRDYYAN,GKNNRPS,SSMDSSGFQVY
65 nM,3/3,EGDSLRYYYAN,GDGNRPS,SSRDSSGFQVI
1.2 µM,3/3,EGRSLRYYYAN,GGNNRPS,SSRDSSGKQVF
2.8 µM,1/3,EGDSLRYYYAN,SKVNRPS,SSRHSSGFQVF
2.5 µM,3/3,EGDDCRYYYAN,GKNSRPS,SSRDSSGFQVF
8.2 µM,2/3,EGDSLRYFYAN,GSNNRPS,SSRDSSGKQVF
3.5 µM,1/3,EGDSLRYYYAL,GKNNRPS,SVRDSSGFQDF
not detected,0/3,EGDSLRYDYNN,GKNNRPS,SSRDSSPFQVF
1.6 µM,3/3,EGDSLRYTYAA,GKNNRPS,SSRDFSGFQVF
790 nM,3/3,EGDSIRYYRAN,GKNNRPS,SNRDSSGFQVF
8.0 µM,3/3,EGDSLRYYYAN,GKNNRPR,SGRDSSGFQVH
1.5 µM,3/3,EGDSLRYYTAN,GKNNRPS,SSRDSSGFGVF
1.4 µM,3/3,EGDSLRYYYAN,GKSNRPS,NSRDSSGFQVF

Top 10 of the variants detected in all replicates, tightest first:

CDR-L1,CDR-L2,CDR-L3,Kd (apparent),replicates with signal
EGDSLRYYYAN,GKNDRPS,SSRDQSGFQVF,41 nM,3/3
EGDSLRDYYAN,GKNNRPW,SSRDSSGFQVF,41 nM,3/3
EGDSLRYYYAN,GDGNRPS,SSRDSSGFQVI,65 nM,3/3
EGDSLSYYYAN,GKNNRPQ,SSRDSSGFSVF,91 nM,3/3
EGDSLADYCAN,GKNNRPS,SSRDSSGFQVF,140 nM,3/3
EGDSLSYYYAN,GKNNRPS,SSLDSSGAQVF,320 nM,3/3
EGFSLRYYYAN,GKNNRPQ,SSRDSSGFMVF,410 nM,3/3
EGDSLDYDYAN,GKNNRPS,SSPDSSGFQVF,520 nM,3/3
EGDQLRYYYAN,GENNRPP,SSRDSSGFQVF,650 nM,3/3
EGDSLRYYYAN,GKNNRPS,VSRDSVGTQVF,670 nM,3/3

Empty control strains, which show no peptide, gave a signal in 28% of pairings with library AAYL52; the median was 8.2 µM and 95% of these signals were weaker than 800 nM. No background was subtracted.